Test results published in ChEMBL document CHEMBL1135296, “Structure-activity relationships for mini atrial natriuretic peptide by proline-scanning mutagenesis and shortening of peptide backbone” (Bioorg Med Chem Lett, 2002).

assay: Relative biological activity i.e., the ratio of EC50 of compound to EC50 of miniANP(Mini atrial natriuretic peptide) was evaluated; conditions: Cardiac atrium

SMILES | Ratio
CC[C@H](C)[C@@H]1NC(=O)[C@@H](CCCN=C(N)N)NC(=O)[C@@H]2CCCN2C(=O)[C@@H](CCSC)NC(=O)[C@H](CCCN=C(N)N)NC(=O)CNC(=O)CNC(=O)[C@@H](Cc2ccccc2)NC(=O)[C@H](Cc2c[nH]cn2)NC(=O)[C@@H](NC(=O)[C@@H](N)CCSC)CSSC[C@H](C(=O)N[C@@H](Cc2ccc(O)cc2)C(=O)N[C@@H](CCCN=C(N)N)C(N)=O)NC(=O)[C@@H](CO)NC1=O | > 10000
CC[C@H](C)[C@@H]1NC(=O)[C@@H](CCCN=C(N)N)NC(=O)[C@H](CC(=O)O)NC(=O)[C@@H](CCSC)NC(=O)[C@H](CCCN=C(N)N)NC(=O)CNC(=O)[C@@H]2CCCN2C(=O)[C@@H](Cc2ccccc2)NC(=O)[C@H](Cc2c[nH]cn2)NC(=O)[C@@H](NC(=O)[C@@H](N)CCSC)CSSC[C@H](C(=O)N[C@@H](Cc2ccc(O)cc2)C(=O)N[C@@H](CCCN=C(N)N)C(N)=O)NC(=O)[C@@H](CO)NC1=O | 159
CC[C@H](C)[C@H]1NC(=O)[C@H](CCCN=C(N)N)NC(=O)[C@@H](CC(=O)O)NC(=O)[C@@H]2CCCN2C(=O)[C@@H](CCCN=C(N)N)NC(=O)CNC(=O)CNC(=O)[C@@H](Cc2ccccc2)NC(=O)[C@H](Cc2c[nH]cn2)NC(=O)[C@@H](NC(=O)[C@@H](N)CCSC)CSSC[C@@H](C(=O)N[C@@H](Cc2ccc(O)cc2)C(=O)N[C@@H](CCCN=C(N)N)C(N)=O)NC(=O)[C@H](CO)NC1=O | 96.8
CC[C@H](C)[C@H]1NC(=O)[C@H](CCCN=C(N)N)NC(=O)[C@@H](CC(=O)O)NC(=O)[C@H](CCSC)NC(=O)[C@@H](CCCN=C(N)N)NC(=O)CCCNC(=O)[C@@H](Cc2ccccc2)NC(=O)[C@H](Cc2c[nH]cn2)NC(=O)[C@@H](NC(=O)[C@@H](N)CCSC)CSSC[C@@H](C(=O)N[C@@H](Cc2ccc(O)cc2)C(=O)N[C@@H](CCN=C(N)N)C(N)=O)NC(=O)[C@H](CO)NC1=O | 12.2
CC[C@H](C)[C@H]1NC(=O)[C@H](CCCN=C(N)N)NC(=O)[C@@H](CC(=O)O)NC(=O)[C@H](CCSC)NC(=O)[C@@H](CCCN=C(N)N)NC(=O)CCNC(=O)[C@@H](Cc2ccccc2)NC(=O)[C@H](Cc2c[nH]cn2)NC(=O)[C@@H](NC(=O)[C@@H](N)CCSC)CSSC[C@@H](C(=O)N[C@@H](Cc2ccc(O)cc2)C(=O)N[C@@H](CCCN=C(N)N)C(N)=O)NC(=O)[C@H](CO)NC1=O | 260
CC[C@H](C)[C@@H]1NC(=O)[C@@H](CCCN=C(N)N)NC(=O)[C@H](CC(=O)O)NC(=O)[C@@H](CCSC)NC(=O)[C@H](CCCN=C(N)N)NC(=O)[C@H]2CCCN2C(=O)CNC(=O)[C@@H](Cc2ccccc2)NC(=O)[C@H](Cc2c[nH]cn2)NC(=O)[C@@H](NC(=O)[C@@H](N)CCSC)CSSC[C@H](C(=O)N[C@@H](Cc2ccc(O)cc2)C(=O)N[C@@H](CCCN=C(N)N)C(N)=O)NC(=O)[C@@H](CO)NC1=O | 68.7
CC[C@H](C)[C@@H]1NC(=O)[C@@H](CCCN=C(N)N)NC(=O)[C@H](CC(=O)O)NC(=O)[C@@H](CCSC)NC(=O)[C@@H]2CCCN2C(=O)CNC(=O)CNC(=O)[C@@H](Cc2ccccc2)NC(=O)[C@H](Cc2c[nH]cn2)NC(=O)[C@@H](NC(=O)[C@@H](N)CCSC)CSSC[C@H](C(=O)N[C@@H](Cc2ccc(O)cc2)C(=O)N[C@@H](CCCN=C(N)N)C(N)=O)NC(=O)[C@@H](CO)NC1=O | 7.3
CC[C@H](C)[C@@H]1NC(=O)[C@@H](CCCN=C(N)N)NC(=O)[C@H](CC(=O)O)NC(=O)[C@@H](C)NC(=O)[C@H](CCCN=C(N)N)NC(=O)CNC(=O)CNC(=O)[C@@H](Cc2ccccc2)NC(=O)[C@H](Cc2c[nH]cn2)NC(=O)[C@@H](NC(=O)[C@@H](N)CCSC)CSSC[C@H](C(=O)N[C@@H](Cc2ccc(O)cc2)C(=O)N[C@@H](CCCN=C(N)N)C(N)=O)NC(=O)[C@@H](CO)NC1=O | 292
CC[C@H](C)[C@@H]1NC(=O)[C@@H](CCCN=C(N)N)NC(=O)[C@H](CC(=O)O)NC(=O)[C@@H](CCSC)NC(=O)[C@H](CCCN=C(N)N)NC(=O)CNC(=O)[C@H](Cc2ccccc2)NC(=O)[C@@H](Cc2c[nH]cn2)NC(=O)[C@@H](NC(=O)[C@@H](N)CCSC)CSSC[C@H](C(=O)N[C@@H](Cc2ccc(O)cc2)C(=O)N[C@@H](CCCN=C(N)N)C(N)=O)NC(=O)[C@@H](CO)NC1=O | 316
